Where a name gives a salt, the structure may show the parent alone.
Target: T1, dopamine transporter (dopamine uptake site), guinea pig striatal membranes (Cavia porcellus, UniProt H0WCX4)
T1 construct: The receptor source was guinea pig striatal membranes; from tissue; host or cells: guinea pig striatum (membranes)
Experiment: Dopamine transporter binding assay ([3H]WIN 35,428)

The chains behind the UniProt entries cited, without tags or fusion partners. Residues count along the entry.
UniProt H0WCX4, 1-619: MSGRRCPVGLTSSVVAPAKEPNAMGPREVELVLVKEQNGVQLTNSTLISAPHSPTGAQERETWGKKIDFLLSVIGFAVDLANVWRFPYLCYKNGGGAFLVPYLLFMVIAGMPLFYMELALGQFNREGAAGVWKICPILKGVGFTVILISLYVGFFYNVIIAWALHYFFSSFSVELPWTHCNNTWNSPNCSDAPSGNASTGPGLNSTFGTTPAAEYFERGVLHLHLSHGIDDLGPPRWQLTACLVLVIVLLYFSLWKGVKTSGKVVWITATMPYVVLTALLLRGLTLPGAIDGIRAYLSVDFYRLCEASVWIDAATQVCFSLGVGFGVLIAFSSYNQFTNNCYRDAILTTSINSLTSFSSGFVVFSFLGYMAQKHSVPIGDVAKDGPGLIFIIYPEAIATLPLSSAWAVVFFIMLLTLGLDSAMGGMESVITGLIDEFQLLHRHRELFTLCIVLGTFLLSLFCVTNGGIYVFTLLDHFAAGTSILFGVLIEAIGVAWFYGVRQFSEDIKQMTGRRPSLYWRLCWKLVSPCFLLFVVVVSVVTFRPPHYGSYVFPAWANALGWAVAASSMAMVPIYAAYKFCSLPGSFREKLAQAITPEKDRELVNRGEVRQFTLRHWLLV

## Fc1ccc(C(OCCN2CCN(CCCc3ccccc3)CC2)c2ccc(F)cc2)cc1 [GBR 12909, 1-[2-[bis(4-Fluorophenyl)methoxy]ethyl]-4-[3-phenylpropyl]piperazine dihydrochloride]
  Ki: 11.6 nM

— patent US20060173064A1, “(-)-1-(3,4-Dichlorophenyl)-3-azabi cyclo[3.1.0]hexane, compositions thereof, and uses for treating alcohol-related disorders” (priority 2001, published 2006)
